Test results as given in patent publication US20120108947A1, “METHOD FOR PREDICTING WEIGHT GAIN ASSOCIATED WITH A PHARMACEUTICAL THERAPY” (priority 2009, published 2012).

Details: in vivo

For `Cc1cc2c(s1)Nc1ccccc1N=C2N1CCN(C)CC1` [olanzapine, 2-methyl-4-(4-methyl-1-piperazinyl)-10H-thieno[2,3-b][1,5]benzodiazepine], the “TRL V6 change from baseline, response predictive of weight gain” value was 6.5 mg/dL, the “TRL V6 change from baseline, subject with less risk” value was 0.38 mg/dL and the “TRL V6 fold increase, subject with less risk” value was 1.1 fold. For the same compound, the “TRL V6 response predictive of treatment emergent weight gain, % increase” value was “approximately 360%” and the “TRL V6 response predictive of treatment emergent weight gain, fold increase” value was about 3.6 fold.
